Laboratory results as given in paper PMC3273622.

Legend:
Assay in all cases: purified protein
[1] = system: Nc1ncnc2c1ncn2[C@@H]1O[C@H](COP(=O)(O)OP(=O)(O)OP(=O)(O)O)[C@@H](O)[C@H]1O; conditions: co-substrate IP, 10 mM MgCl2, pH 7.5, 37 °C
C=C(C)CCOP(=O)(O)O = conditions: co-substrate ATP, 10 mM MgCl2, pH 7.5, 37 °C
[2] = system: C[C@@H]1O[C@@H]1P(=O)(O)O; conditions: co-substrate ATP, 10 mM MgCl2, pH 7.5, 37 °C

Substance: THA IPK (isopentenyl phosphate kinase) (Thermoplasma acidophilum DSM 1728; K204A)
- Km [1]: 6.9 ± 0.6 µM
- kcat [1]: 7.7 ± 0.2 s⁻¹
- Km (C=C(C)CCOP(=O)(O)O): 2.8 ± 0.3 µM
- kcat (C=C(C)CCOP(=O)(O)O): 7.7 ± 0.2 s⁻¹
- kcat/Km (C=C(C)CCOP(=O)(O)O): 2.8e+06 M⁻¹ s⁻¹
- Km [2]: (1.1 ± 0.1) × 10^4 μM
- kcat [2]: (3 ± 0.1) × 10^−2 s^−1
- kcat/Km [2]: 2.5 M⁻¹ s⁻¹
